Patent US7662853B2, “Monoacetyldiacylglycerol derivative for the treatment of sepsis” (priority 2004, dated 2010)

How the values were obtained:
[1] = tested on: T-cells; assay: T-cell proliferation (3H-thymidine incorporation, SI); format: cell-based, C57BL/6 mice; settings: 7th day
Source text: Splenocytes were collected from C57BL/6 mice (provided from Asan Institute for Life Sciences Animal Lab., Seoul, Korea) spleens. Then, single cell suspensions were obtained by repeated aspiration and flushing. Red blood cells were removed using ammonium chloride and then passed through nylon wool to remove debris and clumps. T-cells were purified using magnetic bead (MACS bead, Miltenyi Biotec, bergich gladbach, Germany) containing anti-goat IgG MACS bead, Miltenyi Biotec, bergich gladbach, Germany) or anti-mouse CD4 (MACS bead, Miltenyi Biotec, bergich gladbach, Germany) or anti-mouse CD8 antibody (MACS bead, Miltenyi Biotec, bergich gladbach, Germany) (Turner and Dockrell (1996) Immunology, 87: 339-342).
T cell suspensions were suspended in Isocove's modified Dulbecco's medium (IMDM, Gibco, Grand Island, N.Y.) supplemented with 10% fetal bovine serum (referred as ‘FBS’ hereinafter) (Gibco, Grand Island, N.Y.). 5×10^4 viable cells per well were cultured in 96-well plates, with 1 μg/ml, of Compound 1, Compound 2, Compound 4 and Compound 5, 0.01, 0.1, 1 μg/ml of Compound 3 (synthesized and provided by Department of Chemistry, Ewha Womans University, Seoul, Korea) or 20 ng/ml of IL-2. […] On the 7th day, the cells were harvested and the […] (referred as ‘SI’ hereinafter) was calculated by the following Mathematical Formula 1. […]

[2] = tested on: T-cells from peripheral blood of AIDS patients; assay: T cell proliferation assay, AIDS patients; format: cell-based, human
Description: The following experiment was performed to confirm the effect of Compound 3 against immunocytes of the AIDS patients. First, Human mononuclear cells were obtained by Hisopaque 1077 from peripheral blood of AIDS patients. Red blood cells were removed using ammonium chloride and then passed through nylon wool to remove debris and clumps. T-cells were purified using magnetic bead (anti-human CD3) (MACS bead, Miltenyi Biotec, bergich gladbach, Germany). T cell suspensions were suspended in Isocove's modified Dulbecco's medium (IMDM, Gibco, Grand Island, N.Y.) supplemented with 10% fetal bovine serum (referred as ‘FBS’ hereinafter) (Gibco, Grand Island, N.Y.). 5×10^4 viable cells per well (in triplicate) were cultured in 96-well plates, with 0.01, 0.1, 1 μg/ml concentrations of Compound 3 or IL-2 (20 ng/ml). On the 6th day, cells were incubated with 1 μCi ^3H-thymidine/well for 24 hours. On the 7th day, the cells were harvested and the incorporation of ^3H-thymidine was measured. The SI (Stimulation Index) was calculated by the above mentioned formula 1.

Compound	SI ([1]; 20 ng/ml)	Stimulation Index (SI) ([2]; AIDS patient 1, 20 ng/ml)	Stimulation Index (SI) ([2]; AIDS patient 2, 20 ng/ml)	Stimulation Index (SI) ([2]; AIDS patient 3, 20 ng/ml)	Stimulation Index (SI) ([2]; AIDS patient 4, 20 ng/ml)	SI ([1]; 1 μg/ml, CPM in sample/CPM in control)
IL-2: IL-2, a kind of cytokines, used at 20 ng/ml as comparison	2.05 ± 0.24	1.41	4.17	1.29	6.54	
CCCCC/C=C\C/C=C\CCCCCCCC(=O)OC(COC(C)=O)COC(=O)CCCCCCCCCCCCCCC (stereo not drawn) [Compound 3]						2.05 ± 0.64
